In the data set the test system is hematoencephalic barrier. The settings on record: rats treated with C1; detected with anti-methionine antibodies.

Consider “L-Methionine-reduced glutaraldehyde-poly-L-lysine”, for which the “passage of the hematoencephalic barrier” value was “passes through the hematoencephalic barrier”.

For the origin of these results see US20090325856A1, “Composition Designed For The Treatment Of Multiple Sclerosis” (GEMAC, priority 2005, published 2009).
